Earlier results, collected in PubChem BioAssay AID977611.

Tests used:
Test in all cases: PubChem AID 977611
[1] = target: Acarbose/maltose binding protein GacH; details: PDB protein-ligand complexes, literature Kd; protein: Acarbose/maltose binding protein GacH; PDB entry 3K00
thymidylate synthase = details: PDB protein-ligand complexes, literature Kd, protein: thymidylate synthase
[2] = target: Phenylethanolamine N-methyltransferase, PNMT; details: PDB protein-ligand complexes, literature Kd; protein: Phenylethanolamine N-methyltransferase, PNMT; PDB entry 3KPU
trypsin beta = details: PDB protein-ligand complexes, literature Kd; protein: trypsin beta; PDB entry 1K1L
[3] = target: Gag-Pol polyprotein (Pr160Gag-Pol); details: PDB protein-ligand complexes, literature Kd; protein: Gag-Pol polyprotein (Pr160Gag-Pol); PDB entry 2O4K
flavodoxin = details: PDB protein-ligand complexes, literature Kd, protein: flavodoxin
odorant-binding protein = details: PDB protein-ligand complexes, literature Kd; protein: odorant-binding protein; PDB entry 1G85
lysozyme = details: PDB protein-ligand complexes, literature Kd; protein: lysozyme; PDB entry 1LI3
transthyretin = details: PDB protein-ligand complexes, literature Kd; protein: transthyretin; PDB entry 1BM7
[4] = target: h-2 class i histocompatibility antigen; details: PDB protein-ligand complexes, literature Kd, protein: h-2 class i histocompatibility antigen
[5] = target: aspartate aminotransferase; details: PDB protein-ligand complexes, literature Kd; protein: aspartate aminotransferase; PDB entry 1CZC

For `OC[C@H]1O[C@@H](O[C@H]2[C@H](O)[C@@H](O)[C@@H](O[C@H]3[C@H](O)[C@@H](O)[C@@H](O[C@H]4[C@H](O)[C@@H](O)[C@@H](O)O[C@@H]4CO)O[C@@H]3CO)O[C@@H]2CO)[C@H](O)[C@H](O)[C@@H]1O`, the Kd [1] is given as 1.7 µM.
In the case of `Nc1ccn([C@H]2C[C@H](O)[C@@H](COP(=O)(O)O)O2)c(=O)n1`, the Kd (thymidylate synthase; PDB entry 1NJA) is given as 0.49 µM, the Kd (thymidylate synthase; PDB entry 1NJC) is given as 2.8 µM and the Kd (thymidylate synthase; PDB entry 1NJE) is given as 160 µM.
For `O=c1cc[nH]c2ccccc12`, the Kd [2] is given as 690 µM.
For `N=C(N)c1cccc(C[C@H](NS(=O)(=O)c2ccc3ccccc3c2)C(=O)N2CCNCC2)c1`, the Kd (trypsin beta) is given as 0.125 µM.
In the case of `COC(=O)N[C@H](C(=O)N[C@@H](Cc1ccccc1)[C@@H](O)CN(Cc1ccc(-c2ccccn2)cc1)NC(=O)[C@@H](NC(=O)OC)C(C)(C)C)C(C)(C)C`, the Kd [3] is listed as 35 pM.
For `Cc1cc2c(cc1C)N(C[C@H](O)[C@H](O)[C@H](O)COP(=O)(O)O)c1[nH]c(=O)[nH]c(=O)c1N2`, the Kd (flavodoxin; PDB entry 1AG9) is given as 0.001 µM, the Kd (flavodoxin; PDB entry 1C7E) is given as 0.505 µM and the Kd (flavodoxin; PDB entry 1CZO) is given as 28 µM. For the same compound, the Kd (flavodoxin; PDB entry 1D04) was 26 µM.
In the case of `CCCCC[C@H](O)CC`, the Kd (odorant-binding protein) is listed as 3.3 µM.
For `O=c1ccn([C@H]2C[C@H](O)[C@@H](COP(=O)(O)O)O2)c(=O)[nH]1`, the Kd (thymidylate synthase; PDB entry 1BP0) is listed as 4 µM, the Kd (thymidylate synthase; PDB entry 1JMF) is listed as 1.7 µM and the Kd (thymidylate synthase; PDB entry 1JMG) is listed as 0.85 µM. The Kd (thymidylate synthase; PDB entry 1JMI) was 0.87 µM, the Kd (thymidylate synthase; PDB entry 1NJB) was 1.6 µM and the Kd (thymidylate synthase; PDB entry 1NJD) was 2.7 µM. For the same compound, the Kd (thymidylate synthase; PDB entry 1TSV) was 16 µM and the Kd (thymidylate synthase; PDB entry 1TSY) was 11 µM.
In the case of `Oc1cccc(Cl)c1`, the Kd (lysozyme) is listed as 56 µM.
In the case of `O=C(O)c1ccccc1Nc1cccc(C(F)(F)F)c1`, the Kd (transthyretin) is listed as 0.03 µM.
In the case of `CC(C)C[C@H](NC(=O)[C@H](C)NC(=O)[C@@H]1CCCN1C(=O)[C@H](Cc1ccc(O)cc1)NC(=O)[C@H](CC(N)=O)NC(=O)CNC(=O)[C@@H]1CCCN1C(=O)[C@H](C)NC(=O)[C@@H](N)Cc1ccccc1)C(=O)O`, the Kd ([4]; PDB entry 1FZK) is given as 0.004 µM and the Kd ([4]; PDB entry 1FZO) is given as 0.013 µM.
For `O=C(O)CCCC(=O)O`, the Kd [5] is listed as 1500 µM.
For `Cc1cn([C@H]2C[C@H](O)[C@@H](COP(=O)(O)O)O2)c(=O)[nH]c1=O`, the Kd (thymidylate synthase; PDB entry 1TYS) is listed as 3.27 µM.
In the case of `CC(C)C[C@H](NC(=O)CNC(=O)[C@H](CCC(N)=O)NC(=O)[C@H](Cc1ccc(O)cc1)NC(=O)[C@@H](NC(=O)[C@H](Cc1ccc(O)cc1)NC(=O)CNC(=O)[C@@H](N)CCCN=C(N)N)C(C)C)C(=O)O`, the Kd ([4]; PDB entry 1FZJ) is given as 0.008 µM and the Kd ([4]; PDB entry 1FZM) is given as 0.02 µM.
